Test [1] addresses Pancreatic Lipase (Porcine) (Sus scrofa, UniProt P00591). The test can be described thus: In vitro FRET-based assay with reporter compound (17), pancreatic lipase. Type of test: biochemical.
For a further test, the target named is hDAGLα (Homo sapiens, UniProt Q9Y4D2). Put plainly: Radio-TLC assay of DAGL inhibition with [14C]SAG substrate, hDAGLα.
In test [2] the test system is Lipoprotein Lipase (Bacterial). Put plainly: In vitro FRET-based assay with reporter compound (17), lipoprotein lipase. Type of test: biochemical, Pseudomonas sp.
The next test deals with MAGL (Homo sapiens, UniProt Q99685). Particulars: cited from earlier work.
The next test relates to DAGL. Particulars: cited from earlier work.
A further test concerns FAAH. To be noted: cited from earlier work.
In a further test the test system is cannabinoid receptors. Put plainly: Cannabinoid receptor binding (Example 6).

The chains behind the UniProt entries cited, without tags or fusion partners.
UniProt P00591, whole entry: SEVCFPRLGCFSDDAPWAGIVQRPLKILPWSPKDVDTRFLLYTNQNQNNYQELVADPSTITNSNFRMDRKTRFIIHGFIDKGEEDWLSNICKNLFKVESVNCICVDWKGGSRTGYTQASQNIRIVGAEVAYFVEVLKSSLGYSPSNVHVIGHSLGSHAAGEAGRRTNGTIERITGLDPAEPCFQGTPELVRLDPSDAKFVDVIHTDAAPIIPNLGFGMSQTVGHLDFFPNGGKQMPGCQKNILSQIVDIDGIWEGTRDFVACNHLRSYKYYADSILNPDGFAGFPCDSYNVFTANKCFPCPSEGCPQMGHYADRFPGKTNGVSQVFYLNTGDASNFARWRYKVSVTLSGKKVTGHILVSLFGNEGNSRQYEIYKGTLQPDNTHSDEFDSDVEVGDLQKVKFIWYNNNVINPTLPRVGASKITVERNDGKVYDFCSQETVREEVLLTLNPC
UniProt Q9Y4D2, whole entry: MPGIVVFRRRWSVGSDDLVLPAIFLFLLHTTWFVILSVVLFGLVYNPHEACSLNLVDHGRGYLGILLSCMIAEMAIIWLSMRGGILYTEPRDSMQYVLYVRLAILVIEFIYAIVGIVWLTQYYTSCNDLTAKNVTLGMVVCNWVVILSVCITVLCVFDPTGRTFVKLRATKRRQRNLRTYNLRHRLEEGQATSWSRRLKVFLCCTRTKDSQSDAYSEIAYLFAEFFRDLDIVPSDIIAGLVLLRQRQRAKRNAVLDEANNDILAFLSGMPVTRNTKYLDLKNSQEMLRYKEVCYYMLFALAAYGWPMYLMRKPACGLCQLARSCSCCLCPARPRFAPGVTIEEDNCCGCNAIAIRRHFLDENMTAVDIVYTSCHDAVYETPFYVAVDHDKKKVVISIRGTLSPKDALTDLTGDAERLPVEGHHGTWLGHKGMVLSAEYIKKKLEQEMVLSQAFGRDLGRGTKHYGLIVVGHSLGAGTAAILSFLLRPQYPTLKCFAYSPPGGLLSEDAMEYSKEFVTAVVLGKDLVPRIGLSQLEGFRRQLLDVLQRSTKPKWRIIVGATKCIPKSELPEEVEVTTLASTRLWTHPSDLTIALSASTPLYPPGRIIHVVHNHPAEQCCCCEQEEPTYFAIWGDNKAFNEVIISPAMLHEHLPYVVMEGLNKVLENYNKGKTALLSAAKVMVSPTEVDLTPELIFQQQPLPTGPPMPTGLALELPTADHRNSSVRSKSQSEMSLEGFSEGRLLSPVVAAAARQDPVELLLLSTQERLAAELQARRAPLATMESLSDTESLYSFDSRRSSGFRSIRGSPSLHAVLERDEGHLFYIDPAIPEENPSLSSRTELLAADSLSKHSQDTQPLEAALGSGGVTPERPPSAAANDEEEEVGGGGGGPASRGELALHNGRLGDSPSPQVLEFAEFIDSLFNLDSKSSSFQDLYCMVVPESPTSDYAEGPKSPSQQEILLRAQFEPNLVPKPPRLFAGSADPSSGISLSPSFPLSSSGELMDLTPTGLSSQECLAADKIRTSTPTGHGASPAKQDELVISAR
UniProt Q99685, whole entry: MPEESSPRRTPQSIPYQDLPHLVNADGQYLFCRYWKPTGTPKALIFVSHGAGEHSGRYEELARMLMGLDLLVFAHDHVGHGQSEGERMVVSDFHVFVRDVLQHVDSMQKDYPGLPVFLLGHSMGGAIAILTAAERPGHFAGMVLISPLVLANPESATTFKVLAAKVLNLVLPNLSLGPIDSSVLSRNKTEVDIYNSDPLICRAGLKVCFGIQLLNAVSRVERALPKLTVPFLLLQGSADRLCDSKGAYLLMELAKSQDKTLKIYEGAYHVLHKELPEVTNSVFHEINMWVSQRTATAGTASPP

Data on 1 molecule can be found in patent US20150099800A1, “NOVEL LIPASE INHIBITORS, REPORTER SUBSTRATES AND USES THEREOF” (Northeastern University, priority 2012, published 2015).

Where only a bound is given, the exact number is not on record here.

Turning to `O=C(NCCCCCCNC(=O)ON=C1CCCCC1)ON=C1CCCCC1`, the “Pancreatic Lipase (Porcine) inhibition at 10 μM (%)” value in test [1] came to 78%. Also, at hDAGLα, the “inhibition of hDAGLα in radio-TLC assays” value was “poor inhibitors”. Moreover, the “Lipoprotein Lipase (Bacterial) inhibition at 10 μM (%)” value in test [2] is below 0%. Also, the “inhibition of MAGL activity reported in the literature” value at MAGL was “poor inhibitors”. Further, in the test with DAGL, the “effect on DAGL activity reported in the literature” value was “poor inhibitors”. Further, the “inhibition of FAAH activity reported in the literature” value in the test with FAAH was “poor inhibitors”. The “binding to the cannabinoid receptors” value in the test on cannabinoid receptors was “did not bind”.
